Test results: PMC5569017, “Development of a novel immunoassay to detect interactions with the transactivation domain of p53: application to screening of new drugs” (Scientific Reports, 2017)

Chains of the proteins cited; added tags and fusions are not shown.
UniProt Q00987, whole entry: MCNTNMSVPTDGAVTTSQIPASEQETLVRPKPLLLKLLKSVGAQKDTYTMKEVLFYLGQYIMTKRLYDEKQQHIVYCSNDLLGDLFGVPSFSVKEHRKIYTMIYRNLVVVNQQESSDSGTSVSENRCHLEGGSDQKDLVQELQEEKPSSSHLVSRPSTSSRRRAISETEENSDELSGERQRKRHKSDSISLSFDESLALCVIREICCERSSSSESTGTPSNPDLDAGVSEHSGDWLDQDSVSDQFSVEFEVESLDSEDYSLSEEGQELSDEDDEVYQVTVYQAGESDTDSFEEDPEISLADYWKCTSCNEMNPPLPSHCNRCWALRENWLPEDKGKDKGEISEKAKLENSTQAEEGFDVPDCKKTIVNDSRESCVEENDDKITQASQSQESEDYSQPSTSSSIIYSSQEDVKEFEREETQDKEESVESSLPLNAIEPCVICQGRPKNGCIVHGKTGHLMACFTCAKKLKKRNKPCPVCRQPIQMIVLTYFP

Biological target: T1, p53-MDM2 interaction (Homo sapiens, UniProt Q00987)
T1 construct: made in house; host or cells: MDM2-GST: Escherichia coli BL21 (DE3), crude extract; p53-His: HEK293T cells transfected with pEnter-p53, crude lysate
Test: AlphaLISA inhibitor screening assay, p53-MDM2 (cellular extracts with p53-His and MDM2-GST)
Assay type: biochemical
Settings: serial dilutions starting with 20 μM, 33.3 μg/well MDM2-GST extract, Fig. 4

course of AlphaLISA response signal with increasing inhibitor dose: continued to rise rapidly
Compound: COc1ccc(C2=N[C@@H](c3ccc(Cl)cc3)[C@@H](c3ccc(Cl)cc3)N2C(=O)N2CCNC(=O)C2)c(OC(C)C)c1 [Nutlin-3a]
